The nature of series [1]: Oxidation by sodium perborate with TAED in water. As to conditions: 4:1 molar ratio of sodium perborate and TAED.
For series [2] the following is noted: cited from earlier work.

Values after ≈ are worked out from the molar mass of the structure shown. Like-named read-outs stand apart in the source and are kept apart here. Only a part of the results on these compounds is given; other tests are left out.

Here are results for one compound from patent US11679084B2, “Method and compositions for rendering opioids safe” (dated 2023).

For the compound `CCC(=O)N(c1ccccc1)C1CCN(CCc2ccccc2)CC1`, the “consumption on treatment with oxidizer” value in series [1] is “rapidly consumed”. Moreover, the solubility was 2 grams per liter in series [2] (neutral pH) and 65 g/L (≈ 193 mM) in series [2] (pH=5.7).
